Results: ChEMBL document CHEMBL5029145, “Discovery of AZD8154, a Dual PI3Kγδ Inhibitor for the Treatment of Asthma” (J Med Chem, 2021)

Assays:
[1] = molecular target: T1, Phosphatidylinositol 4,5-bisphosphate 3-kinase catalytic subunit delta isoform (Homo sapiens, UniProt O00329); experiment: Inhibition of recombinant human PI3Kdelta assessed as reduction in ADP production using Dic8-PIP2 as substrate pre-treated for 15 mins followed by substrate addition measured after 60 mins by ADP-glo assay
T1 sequence (O00329 whole entry): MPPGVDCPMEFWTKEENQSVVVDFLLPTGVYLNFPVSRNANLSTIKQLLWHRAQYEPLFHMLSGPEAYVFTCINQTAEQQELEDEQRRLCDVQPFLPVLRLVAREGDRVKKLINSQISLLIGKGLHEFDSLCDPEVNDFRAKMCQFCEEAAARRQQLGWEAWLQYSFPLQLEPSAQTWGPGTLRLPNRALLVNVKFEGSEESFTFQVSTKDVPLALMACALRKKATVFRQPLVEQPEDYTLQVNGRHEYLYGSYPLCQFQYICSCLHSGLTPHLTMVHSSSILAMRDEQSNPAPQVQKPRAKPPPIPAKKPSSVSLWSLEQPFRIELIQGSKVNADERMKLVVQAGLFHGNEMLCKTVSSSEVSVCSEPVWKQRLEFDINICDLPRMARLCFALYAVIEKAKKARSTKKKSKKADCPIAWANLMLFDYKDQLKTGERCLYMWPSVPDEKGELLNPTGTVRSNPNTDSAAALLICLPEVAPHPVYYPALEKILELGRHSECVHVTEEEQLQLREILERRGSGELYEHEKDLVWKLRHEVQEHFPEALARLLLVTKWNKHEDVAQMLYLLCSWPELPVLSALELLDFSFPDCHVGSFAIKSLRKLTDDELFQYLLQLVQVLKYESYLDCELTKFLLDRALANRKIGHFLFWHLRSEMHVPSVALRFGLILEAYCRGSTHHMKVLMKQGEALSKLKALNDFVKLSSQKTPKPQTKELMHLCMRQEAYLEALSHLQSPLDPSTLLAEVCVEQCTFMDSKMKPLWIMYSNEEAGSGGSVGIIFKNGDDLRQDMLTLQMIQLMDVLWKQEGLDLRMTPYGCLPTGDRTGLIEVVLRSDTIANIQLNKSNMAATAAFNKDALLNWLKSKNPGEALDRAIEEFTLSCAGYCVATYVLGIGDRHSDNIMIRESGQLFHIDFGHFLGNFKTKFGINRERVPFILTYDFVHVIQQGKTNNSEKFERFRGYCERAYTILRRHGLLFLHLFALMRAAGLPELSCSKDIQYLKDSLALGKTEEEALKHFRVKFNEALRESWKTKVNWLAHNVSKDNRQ

[2] = molecular target: T1, Phosphatidylinositol 4,5-bisphosphate 3-kinase catalytic subunit delta isoform; experiment: Inhibition of PI3Kdelta in anti-IgM-stimulated human JeKo-1 cells assessed as inhibition of AKT phosphorylation at Ser473 residue incubated for 60 mins by TR-FRET assay

IC50 [1] | IC50 [2] | SMILES
1 nM | 3.98 nM | Cc1nc(Nc2cccc(N3CCOCC3=O)n2)sc1-c1cc2c(c(S(=O)(=O)NC3COC3)c1)C(=O)N([C@@H](C)C1CC1)C2
1 nM | 7.94 nM | Cc1nc(Nc2cccc(N3CCOCC3=O)n2)sc1-c1cc2c(c(S(C)(=O)=O)c1)C(=O)N([C@@H](C)C1CC1)C2
